In patent CN102875676A one finds ED50, inhibition of VEGF-induced growth of bovine adrenal cortex capillary endothelial cells (MTT) and Kd data, which are given here for two substances.

Sequences of proteins named here, by UniProt entry; tags and fusion partners are left off. A line that says so, or that is headed by a name, gives the form on record, which may keep a tag or linker.
UniProt P15692, other isoform, or with tags, fused parts or gaps limits assumed: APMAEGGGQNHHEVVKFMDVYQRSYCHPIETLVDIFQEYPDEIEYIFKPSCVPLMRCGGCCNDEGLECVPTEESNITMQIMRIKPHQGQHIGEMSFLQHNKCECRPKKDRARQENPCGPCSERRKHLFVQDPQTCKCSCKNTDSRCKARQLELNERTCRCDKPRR

Assay [1] addresses 重组人VEGF (recombinant human VEGF, VEGF-A) (human) (UniProt P15692). Nature of the assay: cell-based or functional assay.
Assay [2] shares this target. Nature of the assay: Friguet method (solution equilibrium with human VEGF, ELISA of free antibody on immobilised VEGF), Fab. (In general: In an ELISA, binding on a coated surface is turned into a signal by an enzyme label.)
For assay [3] the target is unchanged. Nature of the assay: Friguet method, full-length antibody.

With Fab-12 (自备), the ED50, inhibition of VEGF-induced growth of bovine adrenal cortex capillary endothelial cells (MTT) in assay [1] came out at 0.179 µg/mL. In addition, in assay [2], the Kd was 1.35 nM.
As to “Avastin (自备), full-length form of Fab-12 (antibody)”, in assay [3], the Kd amounted to 1.51 nM.

As usually defined, the Kd is a measure of binding affinity in units of concentration.
